Experimental data published in patent US20150202287A1, “COMBINATION THERAPIES COMPRISING ANTI-ERBB3 AGENTS” (Merrimack Pharmaceuticals, Inc., priority 2012, published 2015).

Test system: NCI-N87 cells
Experiment: T-DM1 and heregulin dose matrix cell viability, NCI-N87
Experimental: Cells were allowed to adhere 16-20 hours at +37° C., 5% CO2. Cells were stimulated for 4 hours by adding 5 μl of culture media containing recombinant human NRG-1-β1 EGF domain (HRG1) bringing the final HRG1 stimulation concentration to 0, 0.313, 0.625, 1.25, 2.5, 5 or 10 nM. […] All conditions were assayed in biological quadruplicates. Cells were incubated for 72 h at +37° C., 5% CO2. Cell viability was determined by CellTiter-Glo® Luminescent Cell Viability Assay by adding 20 μl of reconstituted CellTiter-Glo reagent per well, incubating plated for 10 minutes at RT in an orbital shaker and reading the luminescence signal using Biotek™ Synergy H1 Hybrid Reader.

Substance: ado-trastuzumab emtansine [T-DM1]
- cell viability (HRG 0 nM, T-DM1 0.001524 μg/ml, with MM-111 1 μM, 72 h): 95.68 % of control
- cell viability (HRG 0 nM, T-DM1 0.001524 μg/ml, without MM-111, 72 h): 93.37 % of control
- cell viability (HRG 0 nM, T-DM1 0.004572 μg/ml, with MM-111 1 μM, 72 h): 78.87 % of control
- cell viability (HRG 0 nM, T-DM1 0.004572 μg/ml, without MM-111, 72 h): 75.62 % of control
- cell viability (HRG 0 nM, T-DM1 0.013717 μg/ml, with MM-111 1 μM, 72 h): 64.24 % of control
- cell viability (HRG 0 nM, T-DM1 0.013717 μg/ml, without MM-111, 72 h): 51.2155 % of control
- cell viability (HRG 0 nM, T-DM1 0.041152 μg/ml, with MM-111 1 μM, 72 h): 46.35 % of control
- cell viability (HRG 0 nM, T-DM1 0.041152 μg/ml, without MM-111, 72 h): 50.04 % of control
- cell viability (HRG 0 nM, T-DM1 0.123457 μg/ml, with MM-111 1 μM, 72 h): 41.8017 % of control
- cell viability (HRG 0 nM, T-DM1 0.123457 μg/ml, without MM-111, 72 h): 42.65 % of control
- cell viability (HRG 0 nM, T-DM1 0.37037 μg/ml, with MM-111 1 μM, 72 h): 32.86 % of control
- cell viability (HRG 0 nM, T-DM1 0.37037 μg/ml, without MM-111, 72 h): 46.5761 % of control
- cell viability (HRG 0 nM, T-DM1 1.111111 μg/ml, with MM-111 1 μM, 72 h): 35.8 % of control
- cell viability (HRG 0 nM, T-DM1 1.111111 μg/ml, without MM-111, 72 h): 42.8517 % of control
- cell viability (HRG 0 nM, T-DM1 3.333333 μg/ml, with MM-111 1 μM, 72 h): 35.57 % of control
- cell viability (HRG 0 nM, T-DM1 3.333333 μg/ml, without MM-111, 72 h): 40.81 % of control
- cell viability (HRG 0 nM, T-DM1 10 μg/ml, with MM-111 1 μM, 72 h): 32.2 % of control
- cell viability (HRG 0 nM, T-DM1 10 μg/ml, without MM-111, 72 h): 43.85 % of control
- cell viability (HRG 0.313 nM, T-DM1 0.001524 μg/ml, with MM-111 1 μM, 72 h): 98.3686 % of control
- cell viability (HRG 0.313 nM, T-DM1 0.001524 μg/ml, without MM-111, 72 h): 100.3208 % of control
- cell viability (HRG 0.313 nM, T-DM1 0.004572 μg/ml, with MM-111 1 μM, 72 h): 87.84 % of control
- cell viability (HRG 0.313 nM, T-DM1 0.004572 μg/ml, without MM-111, 72 h): 92.59 % of control
- cell viability (HRG 0.313 nM, T-DM1 0.013717 μg/ml, with MM-111 1 μM, 72 h): 74.46 % of control
- cell viability (HRG 0.313 nM, T-DM1 0.013717 μg/ml, without MM-111, 72 h): 79.62 % of control
- cell viability (HRG 0.313 nM, T-DM1 0.041152 μg/ml, with MM-111 1 μM, 72 h): 52.5808 % of control
- cell viability (HRG 0.313 nM, T-DM1 0.041152 μg/ml, without MM-111, 72 h): 74.72 % of control
- cell viability (HRG 0.313 nM, T-DM1 0.123457 μg/ml, with MM-111 1 μM, 72 h): 44.83 % of control
- cell viability (HRG 0.313 nM, T-DM1 0.123457 μg/ml, without MM-111, 72 h): 64.7733 % of control
- cell viability (HRG 0.313 nM, T-DM1 0.37037 μg/ml, with MM-111 1 μM, 72 h): 41.53 % of control
- cell viability (HRG 0.313 nM, T-DM1 0.37037 μg/ml, without MM-111, 72 h): 50.76 % of control
- cell viability (HRG 0.313 nM, T-DM1 1.111111 μg/ml, with MM-111 1 μM, 72 h): 37.6864 % of control
- cell viability (HRG 0.313 nM, T-DM1 1.111111 μg/ml, without MM-111, 72 h): 55.8238 % of control
- cell viability (HRG 0.313 nM, T-DM1 3.333333 μg/ml, with MM-111 1 μM, 72 h): 34.51 % of control
- cell viability (HRG 0.313 nM, T-DM1 3.333333 μg/ml, without MM-111, 72 h): 57.25 % of control
- cell viability (HRG 0.313 nM, T-DM1 10 μg/ml, with MM-111 1 μM, 72 h): 36.02 % of control
- cell viability (HRG 0.313 nM, T-DM1 10 μg/ml, without MM-111, 72 h): 57.69 % of control
- cell viability (HRG 0.625 nM, T-DM1 0.001524 μg/ml, with MM-111 1 μM, 72 h): 108.5211 % of control
- cell viability (HRG 0.625 nM, T-DM1 0.001524 μg/ml, without MM-111, 72 h): 106.4739 % of control
- cell viability (HRG 0.625 nM, T-DM1 0.004572 μg/ml, with MM-111 1 μM, 72 h): 86.78 % of control
- cell viability (HRG 0.625 nM, T-DM1 0.004572 μg/ml, without MM-111, 72 h): 106.0159 % of control
- cell viability (HRG 0.625 nM, T-DM1 0.013717 μg/ml, with MM-111 1 μM, 72 h): 66.86 % of control
- cell viability (HRG 0.625 nM, T-DM1 0.013717 μg/ml, without MM-111, 72 h): 84.04 % of control
- cell viability (HRG 0.625 nM, T-DM1 0.041152 μg/ml, with MM-111 1 μM, 72 h): 55.33 % of control
- cell viability (HRG 0.625 nM, T-DM1 0.041152 μg/ml, without MM-111, 72 h): 61.45 % of control
- cell viability (HRG 0.625 nM, T-DM1 0.123457 μg/ml, with MM-111 1 μM, 72 h): 45.12 % of control
- cell viability (HRG 0.625 nM, T-DM1 0.123457 μg/ml, without MM-111, 72 h): 71.29 % of control
- cell viability (HRG 0.625 nM, T-DM1 0.37037 μg/ml, with MM-111 1 μM, 72 h): 40.0349 % of control
- cell viability (HRG 0.625 nM, T-DM1 0.37037 μg/ml, without MM-111, 72 h): 58.91 % of control
- cell viability (HRG 0.625 nM, T-DM1 1.111111 μg/ml, with MM-111 1 μM, 72 h): 38.28 % of control
- cell viability (HRG 0.625 nM, T-DM1 1.111111 μg/ml, without MM-111, 72 h): 65.075 % of control
- cell viability (HRG 0.625 nM, T-DM1 3.333333 μg/ml, with MM-111 1 μM, 72 h): 38.6461 % of control
- cell viability (HRG 0.625 nM, T-DM1 3.333333 μg/ml, without MM-111, 72 h): 62.78 % of control
- cell viability (HRG 0.625 nM, T-DM1 10 μg/ml, with MM-111 1 μM, 72 h): 36.36 % of control
- cell viability (HRG 0.625 nM, T-DM1 10 μg/ml, without MM-111, 72 h): 67.86 % of control
- cell viability (HRG 1.25 nM, T-DM1 0.001524 μg/ml, with MM-111 1 μM, 72 h): 107.8277 % of control
- cell viability (HRG 1.25 nM, T-DM1 0.001524 μg/ml, without MM-111, 72 h): 102.2426 % of control
- cell viability (HRG 1.25 nM, T-DM1 0.004572 μg/ml, with MM-111 1 μM, 72 h): 99.95 % of control
- cell viability (HRG 1.25 nM, T-DM1 0.004572 μg/ml, without MM-111, 72 h): 94.16 % of control
- cell viability (HRG 1.25 nM, T-DM1 0.013717 μg/ml, with MM-111 1 μM, 72 h): 73.38 % of control
- cell viability (HRG 1.25 nM, T-DM1 0.013717 μg/ml, without MM-111, 72 h): 81.15 % of control
- cell viability (HRG 1.25 nM, T-DM1 0.041152 μg/ml, with MM-111 1 μM, 72 h): 51.01 % of control
- cell viability (HRG 1.25 nM, T-DM1 0.041152 μg/ml, without MM-111, 72 h): 64.9 % of control
- cell viability (HRG 1.25 nM, T-DM1 0.123457 μg/ml, with MM-111 1 μM, 72 h): 43.11 % of control
- cell viability (HRG 1.25 nM, T-DM1 0.123457 μg/ml, without MM-111, 72 h): 66.02 % of control
